Assay results published in BindingDB's records for doi:10.1016/j.ejmech.2023.115234 (Sichuan University, 2023).

Protein sequences, listed by entry. Tags and fused reporters are not part of them. Lines headed by an entry give the natural chain unless they say otherwise; changes in a name come on top.
UniProt Q99572: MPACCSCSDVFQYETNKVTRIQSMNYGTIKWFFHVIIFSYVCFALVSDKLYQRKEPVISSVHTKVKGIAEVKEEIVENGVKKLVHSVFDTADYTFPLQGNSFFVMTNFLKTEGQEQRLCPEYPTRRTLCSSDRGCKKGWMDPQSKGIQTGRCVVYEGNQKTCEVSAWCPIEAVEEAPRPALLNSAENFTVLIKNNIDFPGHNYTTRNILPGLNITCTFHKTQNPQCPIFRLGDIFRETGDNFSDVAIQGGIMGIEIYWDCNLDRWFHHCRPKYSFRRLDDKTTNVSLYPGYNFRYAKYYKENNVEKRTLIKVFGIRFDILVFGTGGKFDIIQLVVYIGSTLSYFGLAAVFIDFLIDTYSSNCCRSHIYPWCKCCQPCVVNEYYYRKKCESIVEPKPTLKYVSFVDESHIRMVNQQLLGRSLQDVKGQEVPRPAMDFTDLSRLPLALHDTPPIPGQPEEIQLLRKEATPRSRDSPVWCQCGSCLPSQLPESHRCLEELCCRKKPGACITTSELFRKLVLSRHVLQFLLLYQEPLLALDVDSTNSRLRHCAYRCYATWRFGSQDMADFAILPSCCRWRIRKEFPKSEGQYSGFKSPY

Target: P2X purinoceptor 7 (Homo sapiens, UniProt Q99572)
Experiment: Antagonist activity at recombinant human P2X7 receptor expressed in 1321N1 cells measured after 30 mins by fluorescence based calcium flux assay

IC50: 7 nM
Compound: C[C@@H]1c2nnn(-c3ccccc3)c2C[C@H](C)N1C(=O)c1cccc(C(F)(F)F)c1Cl [US9464084, 287]
